Five compounds from patent US11124554B2, “Modified ligand-gated ion channels and methods of use” (Howard Hughes Medical Institute, priority 2016, dated 2021) can be followed below.

Chains of the proteins cited; added tags and fusions are not shown. A line that says so, or that is headed by a name, gives the form on record, which may keep a tag or linker.
UniProt P36544, with tags, fused parts or gaps: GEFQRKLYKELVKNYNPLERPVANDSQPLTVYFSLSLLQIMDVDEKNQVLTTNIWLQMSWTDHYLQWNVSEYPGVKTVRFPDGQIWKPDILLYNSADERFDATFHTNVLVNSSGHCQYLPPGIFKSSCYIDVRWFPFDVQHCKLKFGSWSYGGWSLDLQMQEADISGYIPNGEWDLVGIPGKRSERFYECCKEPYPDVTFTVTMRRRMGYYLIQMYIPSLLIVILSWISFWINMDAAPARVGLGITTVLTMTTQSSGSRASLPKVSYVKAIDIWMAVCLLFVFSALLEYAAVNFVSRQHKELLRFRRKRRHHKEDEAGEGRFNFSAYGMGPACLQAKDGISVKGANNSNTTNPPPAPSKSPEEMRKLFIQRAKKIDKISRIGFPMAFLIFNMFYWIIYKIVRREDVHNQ
UniProt P36544, with tags, fused parts or gaps Q79S/L131G: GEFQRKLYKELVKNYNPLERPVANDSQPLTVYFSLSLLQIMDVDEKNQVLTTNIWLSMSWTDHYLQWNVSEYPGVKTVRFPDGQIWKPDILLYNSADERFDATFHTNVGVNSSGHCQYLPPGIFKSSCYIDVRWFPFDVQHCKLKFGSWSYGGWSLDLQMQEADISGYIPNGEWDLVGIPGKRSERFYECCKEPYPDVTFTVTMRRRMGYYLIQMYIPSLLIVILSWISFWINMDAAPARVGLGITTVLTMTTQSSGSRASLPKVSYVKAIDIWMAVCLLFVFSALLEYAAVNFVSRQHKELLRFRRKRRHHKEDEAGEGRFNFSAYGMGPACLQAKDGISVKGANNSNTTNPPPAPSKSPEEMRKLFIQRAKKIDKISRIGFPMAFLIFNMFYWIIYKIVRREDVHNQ
UniProt P36544, with tags, fused parts or gaps L131G/Q139L/Y217F: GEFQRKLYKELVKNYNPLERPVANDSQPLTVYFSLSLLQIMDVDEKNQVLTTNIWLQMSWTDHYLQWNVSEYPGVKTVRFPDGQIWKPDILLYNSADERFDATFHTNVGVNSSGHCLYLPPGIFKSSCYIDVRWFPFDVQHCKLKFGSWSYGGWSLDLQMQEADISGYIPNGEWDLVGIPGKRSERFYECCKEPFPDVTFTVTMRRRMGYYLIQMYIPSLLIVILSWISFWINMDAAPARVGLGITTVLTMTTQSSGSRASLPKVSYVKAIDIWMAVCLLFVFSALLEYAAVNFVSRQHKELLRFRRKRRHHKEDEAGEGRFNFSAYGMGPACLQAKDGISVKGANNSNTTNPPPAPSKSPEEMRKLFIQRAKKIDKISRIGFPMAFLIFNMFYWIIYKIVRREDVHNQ
UniProt P36544, with tags, fused parts or gaps L131N: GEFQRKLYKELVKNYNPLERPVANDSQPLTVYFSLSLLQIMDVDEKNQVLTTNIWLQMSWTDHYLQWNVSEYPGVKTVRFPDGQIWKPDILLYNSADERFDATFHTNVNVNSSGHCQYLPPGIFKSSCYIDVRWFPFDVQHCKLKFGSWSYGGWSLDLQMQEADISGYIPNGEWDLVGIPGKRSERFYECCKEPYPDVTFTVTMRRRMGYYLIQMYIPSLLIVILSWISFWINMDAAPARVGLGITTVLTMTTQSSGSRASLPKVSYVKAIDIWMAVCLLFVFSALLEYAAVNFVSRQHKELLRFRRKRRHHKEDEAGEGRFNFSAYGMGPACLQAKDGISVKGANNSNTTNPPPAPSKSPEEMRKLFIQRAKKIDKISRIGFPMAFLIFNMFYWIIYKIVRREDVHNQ
UniProt P36544, with tags, fused parts or gaps Q79G/L131G: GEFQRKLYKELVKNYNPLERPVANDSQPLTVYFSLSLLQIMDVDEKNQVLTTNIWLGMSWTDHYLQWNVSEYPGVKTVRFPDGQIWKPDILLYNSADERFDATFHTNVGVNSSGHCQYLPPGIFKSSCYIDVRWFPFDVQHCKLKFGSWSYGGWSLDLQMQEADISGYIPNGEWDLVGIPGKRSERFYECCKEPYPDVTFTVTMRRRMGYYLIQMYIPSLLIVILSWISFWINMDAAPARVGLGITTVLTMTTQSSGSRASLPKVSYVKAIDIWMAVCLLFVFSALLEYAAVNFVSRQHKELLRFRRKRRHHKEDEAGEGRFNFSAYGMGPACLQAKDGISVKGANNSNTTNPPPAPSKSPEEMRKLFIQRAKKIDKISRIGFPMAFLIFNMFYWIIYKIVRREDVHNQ
UniProt P36544, with tags, fused parts or gaps Q79S/L131G/Q139L/Y217F: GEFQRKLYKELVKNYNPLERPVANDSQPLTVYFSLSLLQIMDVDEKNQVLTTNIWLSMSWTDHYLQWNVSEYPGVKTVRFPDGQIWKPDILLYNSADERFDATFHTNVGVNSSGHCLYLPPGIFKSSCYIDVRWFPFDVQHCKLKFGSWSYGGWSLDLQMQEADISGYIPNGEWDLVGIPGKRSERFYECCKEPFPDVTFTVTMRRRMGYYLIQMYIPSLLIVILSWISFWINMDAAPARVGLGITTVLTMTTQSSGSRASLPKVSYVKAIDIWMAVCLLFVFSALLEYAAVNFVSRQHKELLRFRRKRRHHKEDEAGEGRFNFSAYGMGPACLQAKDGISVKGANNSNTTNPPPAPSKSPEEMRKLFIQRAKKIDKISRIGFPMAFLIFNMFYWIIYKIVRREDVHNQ
UniProt P36544, with tags, fused parts or gaps L131M: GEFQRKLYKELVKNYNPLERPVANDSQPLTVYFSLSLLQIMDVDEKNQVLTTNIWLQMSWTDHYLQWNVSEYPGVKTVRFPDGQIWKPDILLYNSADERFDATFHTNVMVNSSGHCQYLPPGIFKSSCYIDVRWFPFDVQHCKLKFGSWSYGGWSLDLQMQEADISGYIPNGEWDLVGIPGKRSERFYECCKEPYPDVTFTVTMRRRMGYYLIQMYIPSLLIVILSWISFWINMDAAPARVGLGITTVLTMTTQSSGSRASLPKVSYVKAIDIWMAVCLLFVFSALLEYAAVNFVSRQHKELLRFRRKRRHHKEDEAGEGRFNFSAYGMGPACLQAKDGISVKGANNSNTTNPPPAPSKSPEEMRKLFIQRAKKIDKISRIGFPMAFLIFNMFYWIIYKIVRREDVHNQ
UniProt P36544, with tags, fused parts or gaps L131Q: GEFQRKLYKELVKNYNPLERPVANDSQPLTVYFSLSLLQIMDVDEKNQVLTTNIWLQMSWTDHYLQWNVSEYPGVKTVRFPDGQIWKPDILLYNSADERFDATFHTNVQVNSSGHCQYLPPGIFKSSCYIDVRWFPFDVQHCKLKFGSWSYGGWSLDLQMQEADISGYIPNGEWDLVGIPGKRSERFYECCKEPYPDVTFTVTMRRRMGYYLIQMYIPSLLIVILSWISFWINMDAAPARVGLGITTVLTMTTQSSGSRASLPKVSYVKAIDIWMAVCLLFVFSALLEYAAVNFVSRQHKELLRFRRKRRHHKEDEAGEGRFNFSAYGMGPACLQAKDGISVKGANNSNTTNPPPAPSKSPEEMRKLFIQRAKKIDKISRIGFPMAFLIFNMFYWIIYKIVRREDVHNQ
UniProt P36544, with tags, fused parts or gaps L131F: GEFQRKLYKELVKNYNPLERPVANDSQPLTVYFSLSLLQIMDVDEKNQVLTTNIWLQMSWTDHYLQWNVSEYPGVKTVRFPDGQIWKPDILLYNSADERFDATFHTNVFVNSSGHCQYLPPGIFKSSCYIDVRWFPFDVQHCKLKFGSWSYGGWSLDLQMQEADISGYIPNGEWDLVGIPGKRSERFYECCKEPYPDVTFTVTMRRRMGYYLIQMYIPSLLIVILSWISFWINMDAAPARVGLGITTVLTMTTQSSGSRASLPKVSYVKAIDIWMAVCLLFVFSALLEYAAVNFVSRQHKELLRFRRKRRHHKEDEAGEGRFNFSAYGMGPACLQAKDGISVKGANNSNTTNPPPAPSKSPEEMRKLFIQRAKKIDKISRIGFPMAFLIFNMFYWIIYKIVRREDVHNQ
UniProt P36544, with tags, fused parts or gaps L131G/Q139L/Y217F/T225I/M226I limits assumed: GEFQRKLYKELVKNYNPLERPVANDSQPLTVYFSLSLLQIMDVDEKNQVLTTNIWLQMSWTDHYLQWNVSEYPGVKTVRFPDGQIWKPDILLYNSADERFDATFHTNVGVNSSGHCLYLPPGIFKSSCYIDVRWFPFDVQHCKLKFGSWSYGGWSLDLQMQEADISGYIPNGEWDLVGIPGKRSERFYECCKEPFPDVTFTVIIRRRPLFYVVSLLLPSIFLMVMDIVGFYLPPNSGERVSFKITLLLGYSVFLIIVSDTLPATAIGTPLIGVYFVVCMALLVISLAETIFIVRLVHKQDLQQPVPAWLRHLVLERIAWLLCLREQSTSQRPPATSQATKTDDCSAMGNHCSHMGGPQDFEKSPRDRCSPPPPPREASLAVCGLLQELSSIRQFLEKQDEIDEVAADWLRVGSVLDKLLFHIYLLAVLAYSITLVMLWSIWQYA
UniProt P36544, with tags, fused parts or gaps T225I/M226I: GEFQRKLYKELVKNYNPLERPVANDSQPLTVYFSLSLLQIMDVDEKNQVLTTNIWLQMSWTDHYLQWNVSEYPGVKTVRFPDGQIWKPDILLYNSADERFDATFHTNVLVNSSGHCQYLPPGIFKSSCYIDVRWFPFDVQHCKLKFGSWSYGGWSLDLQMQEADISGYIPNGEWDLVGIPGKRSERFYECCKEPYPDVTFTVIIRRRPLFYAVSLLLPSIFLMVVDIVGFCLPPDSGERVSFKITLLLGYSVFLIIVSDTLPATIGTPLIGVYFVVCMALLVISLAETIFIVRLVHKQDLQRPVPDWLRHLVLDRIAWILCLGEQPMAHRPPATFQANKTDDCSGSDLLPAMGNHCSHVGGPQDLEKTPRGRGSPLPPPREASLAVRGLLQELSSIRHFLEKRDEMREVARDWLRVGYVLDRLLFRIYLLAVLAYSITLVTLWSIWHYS
UniProt P36544, with tags, fused parts or gaps Y115F/G175K: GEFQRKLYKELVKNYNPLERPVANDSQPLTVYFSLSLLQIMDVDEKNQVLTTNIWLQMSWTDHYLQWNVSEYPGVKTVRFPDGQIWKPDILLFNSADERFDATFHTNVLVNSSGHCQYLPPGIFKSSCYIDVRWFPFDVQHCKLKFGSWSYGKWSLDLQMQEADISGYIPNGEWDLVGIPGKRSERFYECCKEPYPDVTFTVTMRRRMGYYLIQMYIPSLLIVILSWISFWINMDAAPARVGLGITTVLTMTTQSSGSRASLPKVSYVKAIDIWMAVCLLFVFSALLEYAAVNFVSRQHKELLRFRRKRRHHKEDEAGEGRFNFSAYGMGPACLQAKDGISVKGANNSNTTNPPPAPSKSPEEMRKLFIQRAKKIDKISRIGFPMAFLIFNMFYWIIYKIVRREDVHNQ
UniProt P36544, with tags, fused parts or gaps W77F/Q79G/G175K: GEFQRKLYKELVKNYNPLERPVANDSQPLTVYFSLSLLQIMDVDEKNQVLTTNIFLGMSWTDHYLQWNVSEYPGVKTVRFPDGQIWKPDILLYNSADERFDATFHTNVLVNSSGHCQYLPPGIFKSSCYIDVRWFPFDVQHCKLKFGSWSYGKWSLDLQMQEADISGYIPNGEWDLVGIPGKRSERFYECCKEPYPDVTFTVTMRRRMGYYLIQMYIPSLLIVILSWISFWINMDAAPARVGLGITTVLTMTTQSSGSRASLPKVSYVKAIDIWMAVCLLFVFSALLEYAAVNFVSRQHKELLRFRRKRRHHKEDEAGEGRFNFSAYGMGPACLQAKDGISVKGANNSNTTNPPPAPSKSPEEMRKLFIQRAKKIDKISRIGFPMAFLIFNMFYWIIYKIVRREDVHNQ
UniProt P36544, with tags, fused parts or gaps Q79G/Y115F/G175K: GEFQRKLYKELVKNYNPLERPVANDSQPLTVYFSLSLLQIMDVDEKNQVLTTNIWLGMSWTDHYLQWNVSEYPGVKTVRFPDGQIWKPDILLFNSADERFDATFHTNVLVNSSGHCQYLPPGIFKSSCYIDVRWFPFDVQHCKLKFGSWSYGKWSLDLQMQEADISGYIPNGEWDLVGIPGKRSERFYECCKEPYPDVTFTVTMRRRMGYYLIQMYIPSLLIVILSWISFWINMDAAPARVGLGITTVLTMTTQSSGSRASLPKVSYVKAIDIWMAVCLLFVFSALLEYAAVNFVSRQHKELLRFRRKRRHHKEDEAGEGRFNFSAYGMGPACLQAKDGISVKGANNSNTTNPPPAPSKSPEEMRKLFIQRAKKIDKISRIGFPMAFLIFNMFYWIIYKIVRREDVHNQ
UniProt P36544, with tags, fused parts or gaps L131G: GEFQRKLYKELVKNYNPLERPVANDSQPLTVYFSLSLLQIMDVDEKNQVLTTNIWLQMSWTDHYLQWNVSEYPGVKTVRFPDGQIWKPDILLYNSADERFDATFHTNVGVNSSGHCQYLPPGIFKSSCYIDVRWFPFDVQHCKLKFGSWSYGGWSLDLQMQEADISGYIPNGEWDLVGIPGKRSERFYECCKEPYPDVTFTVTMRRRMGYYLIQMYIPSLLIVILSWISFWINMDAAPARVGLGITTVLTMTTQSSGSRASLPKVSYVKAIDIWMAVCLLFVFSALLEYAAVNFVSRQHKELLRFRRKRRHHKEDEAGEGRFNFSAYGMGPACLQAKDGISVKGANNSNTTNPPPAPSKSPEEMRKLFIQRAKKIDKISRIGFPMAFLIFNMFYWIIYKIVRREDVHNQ

The target of experiment [1] is T1, α7-GlyR (Homo sapiens, UniProt P36544).
T1 construct: expressed in transfected cells; host or cells: HEK cells
Kind of experiment: Agonist potency (EC50), HEK cells expressing chimeric channel. Type of experiment: cell-based.

Experiment [2] has as its target T2, α7^Q79S,L131G-GlyR (Homo sapiens, UniProt P36544, L131G/Q79S).
T2 construct: expressed in transfected cells
Briefly: Agonist potency at chimeric channel (Table 9). The following applies: α7GlyR Q79S L131G. Type of experiment: cell-based.

In experiment [3] the target is T3, α7^L131G,Q139L,Y217F-GlyR (Homo sapiens, UniProt P36544, L131G/Q139L/Y217F).
T3 construct: expressed in transfected cells
Format: cell-based.

Experiment [4] addresses T4, α7^L131N-GlyR (Homo sapiens, UniProt P36544, L131N).
T4 construct: expressed in transfected cells
Kind of experiment: Agonist potency at chimeric channel (Table 9). Type of experiment: cell-based. The following applies: α7GlyR L131N.

In experiment [5] the target is T5, α7GlyR Q79G L131G (Homo sapiens, UniProt P36544, L131G/Q79G).
T5 construct: expressed in transfected cells
Kind of experiment: Agonist potency at chimeric channel (Table 9). Format: cell-based.

Experiment [6] concerns the target T6, α7GlyR Q79S L131G Q139L Y217F (Homo sapiens, UniProt P36544, L131G/Q139L/Q79S/Y217F).
T6 construct: expressed in transfected cells
Format: cell-based. The following applies: read-out: Agonist potency.

Experiment [7] addresses T7, α7^L131M-GlyR (Homo sapiens, UniProt P36544, L131M).
T7 construct: expressed in transfected cells
Kind of experiment: Agonist potency at chimeric channel (Table 9). Format: cell-based. Particulars: α7GlyR L131M.

Experiment [8] deals with T8, α7^L131Q-GlyR (Homo sapiens, UniProt P36544, L131Q).
T8 construct: expressed in transfected cells
Briefly: Agonist potency at chimeric channel (Table 9). The following applies: α7GlyR L131Q. Type of experiment: cell-based.

The target in experiment [9] is T9, α7^L131F-GlyR (Homo sapiens, UniProt P36544, L131F).
T9 construct: expressed in transfected cells
Kind of experiment: Agonist potency at chimeric channel (Table 9). Type of experiment: cell-based. Particulars: α7GlyR L131F.

The target of experiment [10] is T10, α7^L131G,Q139L,Y217F-5HT3 HC (Homo sapiens, UniProt P36544, L131G/M226I/Q139L/T225I/Y217F).
T10 construct: expressed in transfected cells
Kind of experiment: Agonist potency at chimeric channel (Table 9). Type of experiment: cell-based.

The target of experiment [11] is T11, α7-5HT3 (Homo sapiens, UniProt P36544, M226I/T225I).
T11 construct: expressed in transfected cells; host or cells: HEK cells
Kind of experiment: Agonist potency (EC50), HEK cells expressing chimeric channel. Type of experiment: cell-based, human α7 nAChR LBD, murine 5HT3 IPD. Particulars: Table 6; read-out: Potency, a7-5HT3.

Experiment [12] deals with T12, α7^Y115F,G175K-GlyR (Homo sapiens, UniProt P36544, G175K/Y115F).
T12 construct: expressed in transfected cells
Briefly: Agonist potency at chimeric channel. Format: cell-based. The following applies: Table 6; read-out: Potency, a7GlyR Y115F G175K.

In experiment [13] the target is T13, α7^W77F,Q79G,G175K-GlyR (Homo sapiens, UniProt P36544, G175K/Q79G/W77F).
T13 construct: expressed in transfected cells
Kind of experiment: Agonist potency at chimeric channel. Type of experiment: cell-based. Particulars: Table 6; read-out: Potency, a7GlyR W77F Q79G G175K.

Experiment [14] has as its target T14, α7^Q79G,Y115F,G175K-GlyR (Homo sapiens, UniProt P36544, G175K/Q79G/Y115F).
T14 construct: expressed in transfected cells
Kind of experiment: Agonist potency at chimeric channel. Type of experiment: cell-based. The following applies: Table 6; read-out: Potency, a7Gly Q79G G175K Y115F.

Experiment [15] deals with T15, α7^L131G-GlyR (Homo sapiens, UniProt P36544, L131G).
T15 construct: expressed in transfected cells
Briefly: Agonist potency at chimeric channel (Table 9). Type of experiment: cell-based.

In experiment [16] the target is T16, α7-GlyR^A298G (Homo sapiens, UniProt P36544, A298G).
T16 construct: expressed in transfected cells; host or cells: HEK cells
Kind of experiment: Agonist potency (EC50), HEK cells expressing chimeric channel. Type of experiment: cell-based. The following applies: read-out: Mean EC50 and SEM in parentheses, α7-GlyR^A298G.

The target of experiment [17] is T17, α7^Y115F-GlyR G175V (Homo sapiens, UniProt P36544, G175V/Y115F).
T17 construct: expressed in transfected cells
Kind of experiment: Agonist potency at chimeric channel (Table 8). The following applies: α7GlyR Y115F G175V. Type of experiment: cell-based.

In experiment [18] the target is T18, α7^L131G-5HT3 HC (Homo sapiens, UniProt P36544, L131G, form not given).
T18 construct: rows headed: Agonist potency; other: α75HT3 L131G HC; α75HT3 L131G HC; fused on or other part: 5-HT3A receptor ion pore domain at the C-terminus
Briefly: Agonist potency at chimeric channel (Table 9). Format: cell-based.

Experiment [19] addresses T19, α7^L131G,Q139L-GlyR (Homo sapiens, UniProt P36544, L131G/Q139L).
T19 construct: expressed in transfected cells
Briefly: Agonist potency at chimeric channel (Table 9). Format: cell-based.

Experiment [20] has as its target T20, α7^L131G,Y217F-GlyR (Homo sapiens, UniProt P36544, L131G/Y217F).
T20 construct: expressed in transfected cells
Kind of experiment: Agonist potency at chimeric channel (Table 9). Type of experiment: cell-based.

The target in experiment [21] is T21, α7^Q79S,L131G,Q139L-GlyR (Homo sapiens, UniProt P36544, L131G/Q139L/Q79S).
T21 construct: expressed in transfected cells
Type of experiment: cell-based. The following applies: read-out: Agonist potency.

The mark [22] stands for this setting: α7GlyR (Table 9), parentheses: SEM, read-out: Agonist potency.
Where [23] appears, read: α7GlyR L131G Q139L Y217F, parentheses: SEM, read-out: Agonist potency.
Where [24] appears, read: α7GlyR Q79S L131G Q139L Y217F, parentheses: SEM.
The mark [25] stands for this setting: read-out: potency at α7^L131G,Q139L,Y217F-GlyR.
Where [26] appears, read: Table 6, read-out: Potency, a7-GlyR.

Read-outs that look alike come from different tables or passages of the source.

On to `c1ccc(-c2cnc3cc4c(cc3n2)C2CNCC4C2)cc1` (stereo not shown) [Compound 765], for which the EC50 was above 100000 nM in experiment [1] (setting [22]); 24 nM in experiment [2]; 31 nM in experiment [3] (setting [23]); above 10000 nM in [4]; 27 nM in experiment [5]; 34 nM in experiment [6] (setting [24]).

On to `Cc1nc2cc3c(cc2nc1-c1ccccc1)C1CNCC3C1` (stereo not shown) [Compound 770], for which the EC50 was 1 nM in [3] (setting [25]); 30 nM in experiment [7]; above 300 nM in experiment [8]; 34 nM in [9]; 7 nM in [10]; above 10000 nM in [4]. Moreover, in experiment [6] (setting [24]), the EC50 stood at 1 nM.

For the compound `O=S1(=O)c2cc(N3CCN4CCC3CC4)ccc2-c2cccc(F)c21` [Compound 773], the EC50 in experiment [11] was determined as 135 nM; in experiment [1] (setting [26]), 1 nM; in [1] (setting [22]), 1 nM; in experiment [12], 0.3 nM; in [13], 1.4 nM; in experiment [14] it was 0.42 nM. In addition, the EC50 in experiment [15] (α7GlyR L131G) was 0.13 nM; in [3] (setting [25]) it was 0.34 nM; in experiment [7], 0.05 nM; in [8], 6 nM; in experiment [9], 0.5 nM; in [10], 2 nM. For the same compound, the EC50 in experiment [4] was 0.4 nM.

Take `O=[N+]([O-])c1cccc2c1S(=O)(=O)c1cc(N3CCN4CCC3CC4)ccc1-2` [Compound 774]: the EC50 is 30 nM in experiment [11]; 6 nM in experiment [1] (setting [26]); 6 nM in experiment [1] (setting [22]); 0.78 nM in experiment [12]; 30 nM in experiment [13]; 30 nM in experiment [14]. For the same compound, the EC50 in experiment [15] (α7GlyR L131G) amounted to 0.04 nM; in [3] (setting [25]), 0.13 nM; in [3] (setting [23]) it was 0.18 nM; in experiment [7], 1 nM; in [8], 2 nM; in [9], 1.3 nM. The EC50 in experiment [10] amounted to 4 nM; in experiment [4], 0.6 nM.

For the compound `c1cnc2cc3c(cc2n1)[C@@H]1CNC[C@H]3C1` [Varenicline], the EC50 in experiment [16] was 250 nM; in experiment [17] it was 4600 nM; in [15] it was 37 nM; in experiment [18], 40 nM; in [19], 30 nM; in experiment [20] it was 30 nM. Moreover, the EC50 is 1.6 nM in experiment [3] (read-out: Agonist potency), 20 nM in [21] and 3 nM in experiment [6].
